# According to PubChem BioAssay (NCI):
# The list shows a part of the results, in another mix than the full data. Where a structure was tested more than once in an assay, its records may differ in their call. Active and inactive are the calls of the source. No stated cut-off is given here; in the data, active means growth inhibition above about 70%; inactive means the rest.
# Assay: NCI Yeast Anticancer Drug Screen. Data for the bub3 strain (AID 167)
# Details: S. cerevisiae bub3 mutant strain, at 50.0 µM, hits give high values
row,Compound,growth inhibition
1,CCOC(=O)NP(=O)(NC(=O)NOC)NC(=O)OCC,inactive: -3.7%
2,CC=C(c1ccc(N(CC)CC)cc1)c1ccc(N(CC)CC)cc1,inactive: 24.7%
3,N#CCN/C(N)=N/[N+](=O)[O-],inactive: 9.55%
4,C#CCOP(=O)(CCl)N(CCCl)CCCl (configuration not stated),inactive: 13.2%
5,O=P1(N(CCCl)CCCl)NCc2ccccc2O1 (configuration not stated),inactive: 45.2%
6,Cc1ccc(C)c(S(=O)(=O)N(CCCl)CCCl)c1,inactive: 20.7%
7,Fc1cccc(NC2=NCC(CI)S2)c1 (configuration not stated),inactive: 8%
8,CC(C)(C(=O)c1cc([N+](=O)[O-])cc([N+](=O)[O-])c1)c1cc([N+](=O)[O-])cc([N+](=O)[O-])c1,inactive: 1.1%
9,CCCC1OP(N)(=O)OCC1CC (configuration not stated),inactive: 2.95%
10,Fc1ccc(NC2=NCC(CI)S2)c(F)c1 (configuration not stated),inactive: -20.2%
11,CC(=O)SCC(Cl)Cl,inactive: 14.9%
12,CCOP1OCC(C)O1 (configuration not stated),inactive: -20.2%
13,O=C(Nc1cc([N+](=O)[O-])cc([N+](=O)[O-])c1)c1cc([N+](=O)[O-])cc([N+](=O)[O-])c1,inactive: -1.45%
14,CS(=O)(=O)OC1CSCC1OS(C)(=O)=O (configuration not stated),inactive: 1.65%
15,N/C(=N\[N+](=O)[O-])NNC=O,inactive: 8.5%
16,NC1=NC(c2ccccc2[N+](=O)[O-])P(=O)(Nc2ncccn2)S1 (configuration not stated),inactive: -30.3%
17,O=C(O)c1cccc(N(CCCl)CCCl)c1,inactive: -11.7%
18,O=[As]c1ccc(F)cc1 (configuration not stated),active: 99.1%
19,CCOC(=O)NC(c1ccc(OC)c(OC)c1)P(=O)(O)Nc1ncn[nH]1 (configuration not stated),inactive: -0.4%

row,Compound,growth inhibition
1,CCCOP(=S)(Nc1ccc(C)cn1)OCCC,inactive: 6.05%
2,c1ccc2c(c1)N=C1CCCC3CCCCC123 (configuration not stated),inactive: 43.5%
3,CCN(CC)P1OCC(C)O1 (configuration not stated),inactive: -6.2%
4,CC[As](=O)(O)O,inactive: 0.8%
5,Cn1c(=O)c([N+](=O)[O-])c(N=[N+]=[N-])c2ccccc21,active: 88%
6,C[As](C)SC(C)(C)C(N)C(=O)O (configuration not stated),inactive: -12.1%
7,CCCCOP(N)(=O)OCCCC,inactive: -18.7%
8,O=[N+]([O-])c1ccc(N(CCS)c2ccc([N+](=O)[O-])cc2[N+](=O)[O-])c([N+](=O)[O-])c1,inactive: -14.9%
9,CC(=O)OC1CNP(=O)(N(CCCl)CCCl)OC1 (configuration not stated),inactive: 14.2%
10,Cc1c([N+](=O)[O-])c(C)c(S(=O)(=O)c2c(C)c([N+](=O)[O-])c(C)c([N+](=O)[O-])c2C)c(C)c1[N+](=O)[O-],inactive: 12.2%
11,CCOP1(=O)N=C(/N=C(\N)N(CC)CC)N(C)C1(C)C (configuration not stated),inactive: -4.8%
12,O=C(O)C1C[N+]12C=CC=CC2=O (configuration not stated),inactive: 8.05%
13,FC1(F)SC(Cl)C(Cl)(Cl)C1(F)F (configuration not stated),inactive: 5.75%
14,O=P1(N(CCCl)CCCl)NC(CO)CO1 (configuration not stated),inactive: 8.65%
15,O=[As]c1ccc(NC(=O)c2ccccc2)cc1 (configuration not stated),inactive: 6.25%
16,CCCCCCCCCCCCCCCC(=O)OCC(COP(=O)(Oc1ccccc1)N(CCCl)CCCl)OC(=O)CCCCCCCCCCCCCCC (configuration not stated),inactive: -5.75%
17,BrC1C2(SCCS2)[C@@H]2C[C@@H](c3ccccc32)C12SCCS2 (some centres not stated),inactive: 12%
18,ClC1CCCCC1SCCCC1OCCO1 (configuration not stated),inactive: 21.2%
